# Where “and” joins values, the source holds several entries; their conditions need not be identical. Identical values can stand only once.
# Experiment: PAMPA permeability assay
# Conditions: free payload
substance,measurement,value
calicheamicin D [CaliD],"PAMPA permeability, fold higher than CaliG",~ 2 fold and 2 fold
same,"PAMPA permeability, fold higher than PBD",~ 3 fold
